Laboratory results taken from PMC5240653 (mAbs, 2016).

Target: hen egg white lysozyme (Gallus gallus (hen), UniProt P00698)
Experiment: SPR

B1: HyHEL-5 (antibody, V domains shown)
VH: EVQLQQSGAELMKPGASVKISCKASGYTFSDYWIEWVKQRPGHGLEWIGEILPGSGSTNYHERFKGKATFTADTSSSTAYMQLNSLTSEDSGVYYCLHGNYDFDGWGQGTTLTVSS
VL: DIVLTQSPAIMSASPGEKVTMTCSASSSVNYMYWYQQKSGTSPKRWIYDTSKLASGVPVRFSGSGSGTSYSLTISSMETEDAATYYCQQWGRNPTFGGGTKLEIK
  Kd: 0.025 nM
  koff: 0.00023 s⁻¹
  kon: 9.5e+06 M⁻¹ s⁻¹
